Values quoted from earlier work as cited in PMC10514295, “Imidazo[1,2-c]quinazolines as a novel and potent scaffold of α-glucosidase inhibitors: design, synthesis, biological evaluations, and in silico studies” (Scientific Reports, 2023).

Details: cited from earlier work

For C[C@H]1O[C@H](O[C@H]2[C@H](O)[C@@H](O)[C@@H](O[C@H]3[C@H](O)[C@@H](O)C(O)O[C@@H]3CO)O[C@@H]2CO)[C@H](O)[C@@H](O)[C@@H]1N[C@H]1C=C(CO)[C@@H](O)[C@H](O)[C@H]1O (stereo partly shown) [Acarbose, acarbose], the systemic absorption is given as “below 2 % of the administered dose”.
